In patent US20140227357A1, “FILL FORMULATIONS AND CAPSULES AND METHOD OF USE TO AVOID MIGRATION OF FILL INTO OR THROUGH THE SHELL” (CAPSUGEL BELGIUM NV, priority 2011, published 2014):
Where two headings read alike, the source gives them in different places.

Columns and labels:
[1] = demineralized water
[2] = Compatibility testing: softening/deformation of filled capsules after storage at 40° C./75% RH; type: physicochemical
Description: The same observation (softening) was confirmed at the 6 months time point.
Compatibility testing: Compatibility testing was executed and no softening /of the capsules was observed after 3 months storage at 40° C./75% RH.
Compatibility testing: Compatibility testing was executed according to the standard compatibility testing program described in the previous Examples.

[3] = Technical batch stability study, 2-butanol and 2-pentanone assay by gas chromatography; type: physicochemical; settings: in Formulation 4, sealed LICAPS
[4] = Mechanical robustness test (% broken capsules); type: physicochemical; settings: for % Broken capsules after 3 weeks storage: size 3 LICAPS
Description: A mechanical robustness test was performed to evaluate the tendency for capsule brittleness when filled with 2-butanol as a function of the relative humidity of the ambient air.

[5] = Hygroscopicity test; type: physicochemical
[6] = www.chemicalbook.com; cited from earlier work
[7] = 40° C. oven
[8] = 50 μL fill, after 3 months at 40° C./75% RH
[9] = 50 μL fill, after 3 weeks at 40° C./75% RH
[10] = 50 μL fill, after 6 months at 40° C./75% RH
[11] = 225 μL fill, after 3 months at 40° C./75% RH
[12] = 225 μL fill, after 3 weeks at 40° C./75% RH
[13] = 225 μL fill, after 6 months at 40° C./75% RH

% Acetaminophen dissolved at 45 min, Average [1, 8]: 94.3%
% Acetaminophen dissolved at 45 min, Maximal [1, 8]: 97.0%
% Acetaminophen dissolved at 45 min, Minimal [1, 8]: 91.7%
% Acetaminophen dissolved at 45 min, Average [1, 9]: 98.2%
% Acetaminophen dissolved at 45 min, Maximal [1, 9]: 99.7%
% Acetaminophen dissolved at 45 min, Minimal [1, 9]: 95.0%
% Acetaminophen dissolved at 45 min, Average [1, 10]: 96.1%
% Acetaminophen dissolved at 45 min, Maximal [1, 10]: 98.8%
% Acetaminophen dissolved at 45 min, Minimal [1, 10]: 90.8%
% Acetaminophen dissolved at 45 min, Average [1, 11]: 99.7%
% Acetaminophen dissolved at 45 min, Maximal [1, 11]: 99.7%
% Acetaminophen dissolved at 45 min, Minimal [1, 11]: 98.5%
% Acetaminophen dissolved at 45 min, Average [1, 12]: 97.2%
% Acetaminophen dissolved at 45 min, Maximal [1, 12]: 100.0%
% Acetaminophen dissolved at 45 min, Minimal [1, 12]: 90.4%
% Acetaminophen dissolved at 45 min, Average [1, 13]: 96.2%
% Acetaminophen dissolved at 45 min, Maximal [1, 13]: 100.0%
% Acetaminophen dissolved at 45 min, Minimal [1, 13]: 90.1%
interaction between fill and gelatin shell ([2]; 50 μL fill, 3 weeks time point, 40° C./75% RH): No interaction was noticeable
softening of the capsules ([2]; 50 μL fill, size 3 LICAPS, 6 months time point, 40° C./75% RH): softening
softening of the capsules ([2]; filled LICAPS capsules, after 3 months storage at 40° C./75% RH): softening of the capsules was observed
assay, % label claim ([3]; 6 months at 25° C./60% RH in PE bags): 101.3%
assay, % label claim ([3]; 6 months at 25° C./60% RH in PET/Alu/PE bags): 100.5%
assay, % label claim ([3]; 6 months at 40° C./75% RH in PET/Alu/PE bags): 99.7%
% Broken capsules after 3 weeks storage ([4]; 8% LOD, 50 μL fill): 42%
% Broken capsules after 3 weeks storage ([4]; 8% LOD, 225 μL fill): 75%
% Broken capsules after 3 weeks storage ([4]; 10% LOD, 50 μL fill): 25%
% Broken capsules after 3 weeks storage ([4]; 10% LOD, 225 μL fill): 15%
percentages of broken capsules ([4]; LOD at 12.6 and 15.4%, 50 μL fill): 20%
results of the hygroscopicity test ([5]; 50 μL fill, storage conditions below 30% RH and above 60% RH): not within acceptable parameters
results of the hygroscopicity test ([5]; 225 μL fill, storage conditions below 20% RH and above 55% RH): not within acceptable parameters
hygroscopic propensity ([5]; high relative humidity conditions): hygroscopic propensity
weight of capsules (loss of fill) ([7]; 225 μL fill, CFS sealed size 3 LICAPS, in function of time): small decrease in weight
weight of capsules (loss of fill) ([7]; 225 μL fill, non sealed size 3 LICAPS, after 5 days): important decrease in weight
Substance: 2-butanol [Formulation 2-butanol]
deformation of the capsules ([2]; 225 μL fill, size 3 LICAPS, 3 months time point, 40° C./75% RH): deformation of the LICAPS® capsules was observed
hygroscopicity of the material [6]: hygroscopic material
weight of capsules (loss of fill) ([7]; 50 μL fill, CFS sealed size 3 LICAPS, in function of time): less pronounced than the one observed for the non sealed capsules
